Values of other authors in EP4650002A1 (Ludwig-Maximilians-Universität, priority 2024, dated 2025).

The chains behind the UniProt entries cited, without tags or fusion partners. Residues count along the entry.
UniProt Q9Y466, 155-383 limits assumed: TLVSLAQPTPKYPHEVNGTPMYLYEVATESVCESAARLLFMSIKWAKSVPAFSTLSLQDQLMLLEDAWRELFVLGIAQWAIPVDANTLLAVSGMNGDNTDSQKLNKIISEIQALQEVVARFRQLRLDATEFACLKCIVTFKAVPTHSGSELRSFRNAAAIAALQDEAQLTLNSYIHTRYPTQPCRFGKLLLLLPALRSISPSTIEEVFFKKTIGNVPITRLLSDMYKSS

Target: human TLX (Homo sapiens, UniProt Q9Y466)
Conditions: literature value (Lit. 16 / Lit. 19); in brackets below the EC50; cited from earlier work

CCCCOc1cc(C(=O)Nc2cc(-n3cnc(C)c3)cc(C(F)(F)F)c2)c2ccccc2n1
relative reporter activity: 0.33±0.12
